Results as given in patent US20220162221A1, “Imaging Agents” (UCB Biopharma SRL, priority 2017, published 2022).

By UniProt entry, the sequences of proteins in these tests, tags left out. Where a name states a change or a piece, a line headed by the entry shows the natural chain unless it says otherwise.
UniProt P21728, whole entry: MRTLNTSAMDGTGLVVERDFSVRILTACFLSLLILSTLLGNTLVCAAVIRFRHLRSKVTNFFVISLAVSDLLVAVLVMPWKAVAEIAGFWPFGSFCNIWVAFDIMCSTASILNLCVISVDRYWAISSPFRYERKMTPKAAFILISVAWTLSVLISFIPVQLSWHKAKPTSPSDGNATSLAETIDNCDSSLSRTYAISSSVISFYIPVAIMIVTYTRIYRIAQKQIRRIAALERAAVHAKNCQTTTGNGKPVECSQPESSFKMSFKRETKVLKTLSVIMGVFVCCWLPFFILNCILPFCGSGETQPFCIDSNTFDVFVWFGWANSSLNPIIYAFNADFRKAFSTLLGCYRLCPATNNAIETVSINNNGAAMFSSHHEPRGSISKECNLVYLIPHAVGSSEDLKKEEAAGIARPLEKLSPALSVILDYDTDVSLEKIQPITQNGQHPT

Target: human D1R (Homo sapiens, UniProt P21728)
Test: Radioligand binding on HEK hD1R membranes with or without D1 PAM
Design: expressed in transfected cells; host or cells: HEK cells, transient transfection, pcDNA3.1; membrane preparation
Details: HEK hD1R membranes (FIG. 3)
Method: Transient transfection of human dopamine D1R was performed with pcDNA3.1 vector in human embryonic kidney cells (HEK hD1R).
The membrane of HEK hD1R cells were used to measure radioligand binding. 48 hours post transfection, cells were pelleted by centrifugation at 1,500 g and 4° C. for 10 min. Pellet was washed once with ice-cold phosphate buffered saline solution (PBS) and centrifuged as described just above. Pellet was homogenized in a buffer containing 15 mM Tris-HCl, 0.3 mM ethylene diamine tetraacetic acid, 1 mM ethylene glycol tetraacetic acid, 2 mM MgCl2 (pH 7.5) and complemented with protease inhibitor cocktail. The homogenate was freeze-thawed twice and equilibrated at 25° C. followed by a 10 min DNAse (10 U/ml) treatment. Subsequently, the solution was centrifuged at 40,000 g and 4° C. for 30 min. Finally, the pellet was resuspended in 20 mM Tris-HCl buffer (pH 7.4) containing 250 mM sucrose and store at −80° C. until D1 radioligand binding assay. Membrane preparation of HEK hD1R (5 μg proteins per assay) were incubated for 120 min at 25° C. with (−)-(Ic) or [^3H]SCH23390 in 0.2 ml binding buffer containing 1% DMSO. At the end of the incubation period, the protein-bound radioligand was recovered by filtration through pre-soaked GF/B glass fiber filters. […] The filters were dried and the radioactivity determined by liquid scintillation. […]

effect of D1 PAM on radioligand binding: no effect
Compound: CN1CCc2cc(Cl)c(O)cc2C(c2ccccc2)C1 (stereo not shown) [[^3H]SCH23390, reference compound]
